{
  "sequences": {"note": "Sequences of proteins named here, by UniProt entry; tags and fusion partners are left off.", "UniProt P98170, whole entry": "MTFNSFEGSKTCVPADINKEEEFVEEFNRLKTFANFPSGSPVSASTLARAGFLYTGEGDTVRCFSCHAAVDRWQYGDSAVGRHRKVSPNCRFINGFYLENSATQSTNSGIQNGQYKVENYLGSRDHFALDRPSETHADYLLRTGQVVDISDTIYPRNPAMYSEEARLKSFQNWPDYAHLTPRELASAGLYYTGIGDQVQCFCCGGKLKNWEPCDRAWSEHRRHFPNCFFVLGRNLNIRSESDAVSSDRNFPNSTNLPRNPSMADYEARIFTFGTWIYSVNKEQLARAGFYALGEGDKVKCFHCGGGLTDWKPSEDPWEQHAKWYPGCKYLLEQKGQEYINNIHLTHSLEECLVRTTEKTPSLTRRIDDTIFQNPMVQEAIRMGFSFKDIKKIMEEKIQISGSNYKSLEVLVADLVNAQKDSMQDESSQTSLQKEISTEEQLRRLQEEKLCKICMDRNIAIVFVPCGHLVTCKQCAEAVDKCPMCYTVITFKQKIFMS"},
  "source": "ChEMBL document CHEMBL1201862",
  "about": "“PubChem BioAssay data set” (2004)",
  "key": {"[1]": {"target": "T1, Protein skinhead-1 (Caenorhabditis elegans, UniProt P34707)", "T1 sequence (P34707 whole entry)": "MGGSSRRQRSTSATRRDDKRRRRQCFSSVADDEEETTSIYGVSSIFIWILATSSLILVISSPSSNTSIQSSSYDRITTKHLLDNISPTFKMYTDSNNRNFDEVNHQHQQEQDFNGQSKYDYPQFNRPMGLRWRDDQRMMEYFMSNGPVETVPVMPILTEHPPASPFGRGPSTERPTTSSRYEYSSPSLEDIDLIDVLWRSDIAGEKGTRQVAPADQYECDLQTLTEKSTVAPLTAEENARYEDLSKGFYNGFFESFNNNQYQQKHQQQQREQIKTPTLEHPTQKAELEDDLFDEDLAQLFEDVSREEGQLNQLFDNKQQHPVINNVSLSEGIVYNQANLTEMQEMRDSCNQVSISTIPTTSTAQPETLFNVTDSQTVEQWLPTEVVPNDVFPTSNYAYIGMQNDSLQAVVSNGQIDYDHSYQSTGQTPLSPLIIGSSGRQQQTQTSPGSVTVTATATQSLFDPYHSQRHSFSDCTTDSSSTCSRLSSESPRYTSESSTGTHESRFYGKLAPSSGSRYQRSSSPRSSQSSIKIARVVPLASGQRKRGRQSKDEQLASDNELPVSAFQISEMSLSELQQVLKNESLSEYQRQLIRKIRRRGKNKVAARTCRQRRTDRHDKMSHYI", "assay_type": "functional"}, "[2]": {"target": "T2, E3 ubiquitin-protein ligase XIAP (Homo sapiens, UniProt P98170)", "assay": "SAR analysis of Antagonists of XIAP-Bir3 domain of IAP-family anti-apoptotic proteins. [Related pubchem assays (depositor defined):AID1018, AID1449, AID1513, AID1514, AID1638]"}, "[3]": {"target": "T2, E3 ubiquitin-protein ligase XIAP", "assay": "SAR analysis of Antagonists of IAP-family anti-apoptotic proteins. [Related pubchem assays (depositor defined):AID1018, AID1449, AID1513, AID1514, AID1638]"}, "[4]": {"target": "Prothrombin (Homo sapiens, UniProt P00734)", "assay": "Thrombin 1536 HTS Dose Response Confirmation. [Related pubchem assays: 1046 (Thrombin 1536 HTS; hits were confirmed in this assay)]", "assay_type": "functional"}},
  "note": "Active and inactive are the calls of the source. Unless noted, no cut-off for these calls is given here.",
  "data": [
    {"molecule": "CCc1ccc(-c2nc(-c3ccncc3)no2)cc1", "values": [
      {"measurement": "IC50", "setting": "[1]", "value": "active: 10.4 µM"}
    ]},
    {"molecule": "CN[C@@H](C)C(=O)N[C@@H](C(=O)N1CCC[C@H]1C(=O)NC1CCCc2ccccc21)C(C)C", "note": "(some centres undefined)", "values": [
      {"measurement": "IC50", "setting": "[2]", "value": "active: 14.5 µM"},
      {"measurement": "IC50", "setting": "[3]", "value": "inactive: 154 µM"}
    ]},
    {"molecule": "COC(=O)c1nnc(NC(=O)c2ccc(C(C)(C)C)cc2)[nH]1", "values": [
      {"measurement": "IC50", "setting": "[4]", "value": "active: 2.39 µM"}
    ]}
  ]
}
